The values that follow come from ChEMBL document CHEMBL4831512 (J Med Chem, 2021).

By UniProt entry, the sequences of proteins in these tests, tags left out.
UniProt P42336, whole entry: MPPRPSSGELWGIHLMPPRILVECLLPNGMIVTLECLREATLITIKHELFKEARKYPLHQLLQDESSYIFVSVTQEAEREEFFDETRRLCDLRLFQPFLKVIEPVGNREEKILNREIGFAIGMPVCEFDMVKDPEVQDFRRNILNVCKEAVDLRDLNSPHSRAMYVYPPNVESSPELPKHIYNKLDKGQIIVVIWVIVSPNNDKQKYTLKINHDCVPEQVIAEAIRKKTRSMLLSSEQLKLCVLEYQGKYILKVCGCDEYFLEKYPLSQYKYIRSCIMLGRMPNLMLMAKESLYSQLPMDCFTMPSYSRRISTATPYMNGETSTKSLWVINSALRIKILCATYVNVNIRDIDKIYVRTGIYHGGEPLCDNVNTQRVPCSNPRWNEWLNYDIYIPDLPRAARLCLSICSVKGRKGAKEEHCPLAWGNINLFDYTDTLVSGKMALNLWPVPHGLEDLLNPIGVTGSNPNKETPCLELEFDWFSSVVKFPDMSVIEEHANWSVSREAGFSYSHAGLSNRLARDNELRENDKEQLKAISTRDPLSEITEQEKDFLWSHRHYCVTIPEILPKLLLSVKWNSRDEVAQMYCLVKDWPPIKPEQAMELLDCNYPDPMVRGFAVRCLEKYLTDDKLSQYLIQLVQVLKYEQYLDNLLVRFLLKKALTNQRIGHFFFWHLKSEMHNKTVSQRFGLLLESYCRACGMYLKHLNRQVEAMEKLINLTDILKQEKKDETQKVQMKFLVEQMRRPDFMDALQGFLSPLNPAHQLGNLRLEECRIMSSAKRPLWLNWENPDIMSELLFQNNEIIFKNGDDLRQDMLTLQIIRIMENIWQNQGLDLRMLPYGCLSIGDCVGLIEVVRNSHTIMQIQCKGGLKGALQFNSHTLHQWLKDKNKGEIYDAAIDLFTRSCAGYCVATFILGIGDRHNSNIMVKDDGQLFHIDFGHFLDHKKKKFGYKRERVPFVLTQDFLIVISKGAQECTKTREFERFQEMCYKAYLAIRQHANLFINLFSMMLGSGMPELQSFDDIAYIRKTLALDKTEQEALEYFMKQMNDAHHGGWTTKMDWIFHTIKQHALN

In this assay the target is Phosphatidylinositol 4,5-bisphosphate 3-kinase catalytic subunit alpha isoform (Homo sapiens, UniProt P42336).

A word on the IC50: it is the concentration needed to halve the response being measured. On to `Cc1ccc(S(=O)(=O)NCC(C)(C)O)cc1-c1cnc(N)c(-c2cnn(C)n2)c1`, for which the IC50 worked out at 570 nM. This counts as sub-micromolar.
